In patent publication US20220409657A1, “INSTRUCTIONS FOR COMPOSITION AND SENSITIVITY” (Azura Ophthalmics Ltd., priority 2020, published 2022):

Experiments:
[1] = taken by mouth; cited from earlier work
human subjects = conditions: one of the ophthalmic studies
Excerpt: In a clinical study three different concentrations were used; 0.1 wt. %, (10 subjects) 0.5 wt. % (12 subjects) and 1 wt. % (26 subjects).

[2] = SeS2 lotion; cited from earlier work

Substance	oral dose that may be toxic [1]	phototoxicity effect, concentrations at which observed (human subjects)	systemic toxicity after topical application to damaged skin [2]
Selenium	> 400 μg per day	–	–
selenium disulfide [SeS2]	–	at least as low as about 0.5 wt. % and 1 wt. %	reported to cause systemic toxicity
